Experimental data as given in patent publication US20230190717A1, “P38 GAMMA INHIBITORS AND METHOD OF USE THEREOF” (City of Hope, priority 2017, published 2023).

Molecular target: T1, p38 γ (Homo sapiens, UniProt P53778)
T1 sequence (P53778 1-367): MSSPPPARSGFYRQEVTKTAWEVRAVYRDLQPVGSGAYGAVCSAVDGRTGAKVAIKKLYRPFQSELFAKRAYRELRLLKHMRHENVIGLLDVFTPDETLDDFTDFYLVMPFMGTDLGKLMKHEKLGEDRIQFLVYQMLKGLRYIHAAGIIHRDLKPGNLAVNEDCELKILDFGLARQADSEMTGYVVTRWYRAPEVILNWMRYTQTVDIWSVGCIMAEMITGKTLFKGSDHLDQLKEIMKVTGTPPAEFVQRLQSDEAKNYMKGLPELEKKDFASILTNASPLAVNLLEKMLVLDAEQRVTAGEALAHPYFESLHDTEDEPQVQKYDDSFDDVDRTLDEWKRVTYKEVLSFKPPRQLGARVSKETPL
Assay: ADP-Glo in vitro kinase assay, p38γ
Format: biochemical
Set-up: human recombinant p38 α, β, γ or δ protein (active full-length); purchased SignalChem; host or cells: baculovirus in Sf9 insect cells

Q: What does the source list for `Cc1ccc([N+](=O)[O-])cc1S(=O)(=O)N(C)/N=C/c1cnc2ccc(Br)cn12` [Compound 1]?
A: IC50 (IC50 p38γ kinase activity, ADP-Glo): 0.0041 to 0.029 µM; IC50 (IC50 value, 10 μM ATP): 0.028 µM; IC50 (IC50 value, 100 μM ATP): 0.1 µM; IC50 (IC50 value, 250 μM ATP): 0.34 µM; Ki (Ki, Ki=IC50/(S/KM+1)): ~0.019 µM; Ki (estimated Ki for inhibiting p38γ enzymatic activity, based on IC50 and enzyme concentration used): 0.01 µM
